From PMC9774897 (Antibiotics, 2022)
In brackets after ≈: the same amount, converted by molar mass. Non-standard residues stand in square brackets, D forms with d. Residues, ends and D or L forms follow the SMILES beside them.

Tests used:
[1] = tested on: biofilm-forming M. abscessus; assay: Antibiofilm activity, crystal violet staining; format: cell-based; conditions: 4-day old biofilms, peptide 6.2–200 µg/mL, 24 h, 37 °C, 562 nm
Description: The procedure is followed by the previously described. Beiefly, M. abscessus colonies grown in Middlebrook 7H11-OADC are resuspended in a sterile PBS and diluted to OD600 0.05 in Sauton’s minimal media. A total of 150 µL bacterial suspension is added into 96-well poly-D-lysine coated plates and further incubated at 37 °C for 4 days. After incubation, the culture medium and planktonic cells are removed and washed once with PBS. In this case, 150 μL of serial two-fold diluted peptide in the range of 6.2–200 µg/mL are added into a 4-day old biofilm and further incubated at 37 °C for 24 h. The peptides are removed and washed once with 150 µL PBS. Next, 100 µL of 0.05% crystal violet solution is added in each well and incubated at room temperature (RT) for 30 min. The dye solution is discarded and microwells are washed once with PBS and air-dried. The crytal violet is extracted with 300 µL of 30% acetic acid and further incubated at RT for 30 min. Finally, the absorbance is measured at 562 nm using Eon microplate spectrophotometer (BioTek Instruments, Inc., Winooski, VT, USA). The percent of relative biofilm mass is calculated. Untreated wells are defined as 100% biofilm formation. The experiment is conducted in duplicate and repeated three times.

M. microti [2] = tested on: M. microti
M. microti [3] = tested on: M. microti; remark: listed apart in the source

CC(C)[C@@H](NC(=O)[C@@H](CO)NC(=O)[C@@H](CCCNC(=N)N)NC(=O)[C@@H](CCCNC(=N)N)NC(=O)[C@@H](CCCNC(=N)N)NC(=O)[C@@H](CCCNC(=N)N)NC(=O)CN)C(=O)N[C@H](CCC(N)=O)C(=O)N[C@H](Cc1c[nH]c2ccccc12)C(=O)N[C@H](CS)C(=O)N[C@H](C)C(=O)O [D-hLF 1-11] (H-G[dR][dR][dR][dR][dS][dV][dQ][dW][dC][dA]-OH; N-terminus and C-terminus assumed)
antibiofilm activity, relative biofilm mass versus untreated biofilm control [1]: no significant difference | MIC, REMA (M. microti [2]): 100 µg/mL (≈ 72.7 µM) | MIC, REMA (M. avium): 100 µg/mL (≈ 72.7 µM) | MIC, REMA (M. intracellulare): 100 µg/mL (≈ 72.7 µM) | MIC, MODS Assay (M. microti [3]): 200 µg/mL (≈ 145 µM)
